Measured values as given in paper PMC9837035 (Nature Communications, 2023).

Key:
BGLT3 RNA in CD34+ cells = test: RT-qPCR of BGLT3 in CD34+ cells; format: cell-based, human
Procedure: HUDEP-2 cells and HiDEP-1 cells were grown in Stemline II Hematopoietic Stem Cell Expansion Medium (Sigma) supplemented with 50 ng/mL recombinant stem cell factor (SCF; R&D systems), 3 IU/mL recombinant erythropoietin (EPO; Kyowa Kirin), 1 μM dexamethasone (Dex; Sigma), and 1 μg/mL doxycycline (Sigma). A total of 1 × 10^5 human CD34^+ progenitor cells derived from bone marrow or peripheral blood (Lonza) were cultured on 35-mm dishes (BD Falcon) in StemSpan SFEMII medium with 50 ng/mL SCF, 5 IU/mL EPO, and 10 ng /mL interleukin 3 (IL-3; R&D systems). The medium was changed on day 4 to SCF, EPO, and 1 μM Dex, and the cells were transferred to 60-mm dishes (BD Falcon). Seven days after the onset of differentiation, cells were counted and 1 × 10^6 cells were re-plated on 100-mm dishes (BD Falcon) with SCF, EPO, and Dex. The rat myoblast cell line H9c2, HEK293T, and PLAT-E cells were maintained in Dulbecco’s modified Eagle’s medium (Thermo Fisher Scientific) supplemented with 10% heat-inactivated fetal bovine serum (FBS) and penicillin/streptomycin. All cells were cultured at 37 °C under 5% CO2.
Total cellular RNA was prepared using the Tissue Total RNA Mini Kit (FAVORGEN), and cDNA was synthesized using ReverTra Ace Master Mix (TOYOBO). Expression of target genes was analyzed using THUNDERBIRD SYBR qPCR Mix (TOYOBO) on a CFX Connect Real Time System (Bio-Rad). The qPCR data were acquired on CFX Maestro (Bio-Rad). Primers are listed in Supplementary Table 10. GAPDH was used as a reference. Primers were purchased from INTEGRATED DNA TECHNOLOGIES or FASMAC.

[1] = Hematological and hepatic parameters, 2-week repeated oral dosing; format: in vivo; details: rats
[2] = Caco-2 permeability assay; format: in vitro ADME; details: human, read-out: Efflux ratio (B to A/A to B)
NSD2 (T1150A) [3] = target: T1, NSD2 (T1150A) (Homo sapiens, UniProt O96028, T1150A); test: biochemical
T1 sequence (O96028 1-1365 T1150A): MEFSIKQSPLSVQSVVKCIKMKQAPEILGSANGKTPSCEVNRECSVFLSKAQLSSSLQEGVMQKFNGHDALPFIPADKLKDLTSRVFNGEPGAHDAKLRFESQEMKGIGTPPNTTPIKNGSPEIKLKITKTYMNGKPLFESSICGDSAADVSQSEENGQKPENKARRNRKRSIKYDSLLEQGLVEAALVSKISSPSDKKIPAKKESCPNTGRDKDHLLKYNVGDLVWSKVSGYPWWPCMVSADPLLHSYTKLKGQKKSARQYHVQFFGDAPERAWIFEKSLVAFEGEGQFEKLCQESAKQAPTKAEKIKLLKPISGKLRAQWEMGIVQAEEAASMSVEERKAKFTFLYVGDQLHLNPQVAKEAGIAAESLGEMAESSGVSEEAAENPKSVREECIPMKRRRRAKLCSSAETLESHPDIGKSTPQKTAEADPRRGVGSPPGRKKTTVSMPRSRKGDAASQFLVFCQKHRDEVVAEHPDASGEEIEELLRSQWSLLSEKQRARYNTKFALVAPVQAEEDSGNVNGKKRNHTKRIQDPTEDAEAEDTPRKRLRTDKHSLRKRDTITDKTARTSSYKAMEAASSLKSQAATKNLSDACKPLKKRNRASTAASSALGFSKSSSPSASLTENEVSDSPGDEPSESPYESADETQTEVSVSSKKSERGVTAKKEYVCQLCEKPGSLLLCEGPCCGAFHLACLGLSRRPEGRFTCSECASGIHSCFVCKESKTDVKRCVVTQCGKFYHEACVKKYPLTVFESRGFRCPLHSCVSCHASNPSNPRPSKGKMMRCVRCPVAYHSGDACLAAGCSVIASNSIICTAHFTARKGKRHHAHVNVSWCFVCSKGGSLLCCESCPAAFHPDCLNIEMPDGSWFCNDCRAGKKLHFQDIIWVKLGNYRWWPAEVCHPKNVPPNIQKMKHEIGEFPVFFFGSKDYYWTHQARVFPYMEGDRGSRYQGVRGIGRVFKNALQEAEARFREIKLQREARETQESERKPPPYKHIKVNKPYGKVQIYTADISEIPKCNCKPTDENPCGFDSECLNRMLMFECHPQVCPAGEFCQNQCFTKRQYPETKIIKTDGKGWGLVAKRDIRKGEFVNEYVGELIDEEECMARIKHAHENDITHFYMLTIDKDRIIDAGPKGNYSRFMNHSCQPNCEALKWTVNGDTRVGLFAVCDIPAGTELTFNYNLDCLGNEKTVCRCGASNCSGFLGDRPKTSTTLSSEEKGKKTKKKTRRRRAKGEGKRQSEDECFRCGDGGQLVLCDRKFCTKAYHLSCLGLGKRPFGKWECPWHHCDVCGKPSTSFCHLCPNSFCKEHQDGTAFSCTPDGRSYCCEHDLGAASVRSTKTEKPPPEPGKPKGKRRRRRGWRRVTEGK

NSD2 (T1150A) [4] = target: T1, NSD2 (T1150A); test: Radioisotope-based methyltransferase assay (selectivity); details: 1 μM SAM

| Structure (SMILES) | Relative expression of BGLT3 RNA (BGLT3 RNA in CD34+ cells; DAY7, 0.01 μM) | Relative expression of BGLT3 RNA (BGLT3 RNA in CD34+ cells; DAY7, 0.03 μM) | Relative expression of BGLT3 RNA (BGLT3 RNA in CD34+ cells; DAY7, 0.1 μM) | Relative expression of BGLT3 RNA (BGLT3 RNA in CD34+ cells; DAY7, 0.3 μM) | Relative expression of BGLT3 RNA (BGLT3 RNA in CD34+ cells; DAY9, 0.01 μM) | Relative expression of BGLT3 RNA (BGLT3 RNA in CD34+ cells; DAY9, 0.03 μM) | Relative expression of BGLT3 RNA (BGLT3 RNA in CD34+ cells; DAY9, 0.1 μM) | Relative expression of BGLT3 RNA (BGLT3 RNA in CD34+ cells; DAY9, 0.3 μM) | Relative expression of BGLT3 RNA (BGLT3 RNA in CD34+ cells; DAY9, 1 μM) | Relative expression of BGLT3 RNA (BGLT3 RNA in CD34+ cells; DAY9, 3 μM) | A/G ([1]; RK-701 10 mg/kg for two weeks, individual animals 1-5, 10 mg/kg) | A/G ([1]; RK-701 30 mg/kg for two weeks, individual animals 1-5, 30 mg/kg) | A/G ([1]; RK-701 100 mg/kg for two weeks, individual animals 1-5, 100 mg/kg) | A/G ([1]; two weeks, 10 mg/kg) | A/G ([1]; two weeks, 30 mg/kg) | A/G ([1]; two weeks, 100 mg/kg) | efflux ratio [2] | IC50 (NSD2 (T1150A) [3]) | IC50 (NSD2 (T1150A) [4]) |
| --- | --- | --- | --- | --- | --- | --- | --- | --- | --- | --- | --- | --- | --- | --- | --- | --- | --- | --- | --- |
| Cc1c(C(=O)NC(CCC2CC2)C(=O)Nc2ccc(C#N)cc2)[nH]c2c1C(=O)CC(C)(C)C2 (stereo not shown) [RK-701] | 1.618 and 1.382 and 1.119 | 2.257 and 2.338 and 2.351 | 5.71 and 5.323 and 4.605 | 6.283 and 5.769 and 4.1359 | 1.433 and 1.1061 and 1.745 | 2.487 and 2.42 and 2.611 | 6.227 and 4.599 and 5.146 | 5.198 and 6.337 and 7.76 | 7.664 and 6.752 and 9.738 | 13.8033 and 7.07 and 10.6038 | 1.3 and 1.4 and 1.6 and 1.5 | 1.4 and 1.3 | 1.5 and 1.3 and 1.4 | 1.5 ± 0.1 | 1.4 ± 0.0 | 1.4 ± 0.1 | 3.6 | – | – |
| Nc1ncnc2c1ncn2[C@@H]1O[C@H](CSCC[C@H](N)C(=O)O)[C@@H](O)[C@H]1O [SAH, S-(5'-Adenosyl)-L-homocysteine, reference compound] | – | – | – | – | – | – | – | – | – | – | – | – | – | – | – | – | – | 7.18 µM | 7.2 µM |

Values joined by “and” are separate entries in the source; they are usually repeats but may differ in a detail not shown here. Equal entries are not always repeated.
